Compound activity (PubChem)
This is a sample that favours compounds with a hit; in the whole collection about 3.7% have one here.
IL-2 act: IL-2 activation. AID 652025. activation, % (series mostly up to about 46 µM). IL-2 activation reporter assay, cell-based qHTS; stimulated with anti-CD3/CD4/CD28 beads; in transgenic mouse T cells. 360,000 tested, 0.065% active; in the data active means activation above about 50%; inconclusive means mostly about 30% to 49%; further: 0% is about no effect
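Readout is EGFP and DsRed signal by fluorescent plate cytometry after 18 h at 37 degrees C. Transgenic mouse T cells (750/well) received compound for 60 min before bead stimulation (anti-CD3, anti-CD4, anti-CD28); memory T cells served as non-tolerant control.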
A549 viability: A549 cytotoxicity, counter-screen for Nrf2 inhibitors; A549 ARE-Fluc cells, CellTiter-Fluor viability, 18-24 h; Potency, µM (highest dose often 46 µM), inactives show at the highest dose activity change, negative = cytotoxicity, hits mostly inhibitors; 390,000 tested, 0.16% active; AID 504648; further: potency means the concentration at half of the fitted maximal effect; on the % scale 0 is the no-effect control and ±100 the full control effect
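Cytotoxicity counterscreen: CellTiter-Fluor fluorescence was measured in A549 ARE_Fluc cells after 18-24 h of compound exposure in a concentration series. The subsequent BugLite luminescent read reports ARE-luciferase activity.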
Nrf2 ARE act: Nrf2 pathway activation; AREc32 ARE-luciferase reporter (MCF7-derived line), luminescence, 24 h; Potency, µM (series often up to 46.1 µM), for inactives: at the top dose activation, hits mostly activators; 410,000 tested, 0.31% active; AID 624171; further: potency means the concentration at half of the fitted maximal effect; % of control where 0% means no effect; nearly all actives have a fitted effect of over 65% in size
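ARE activation measured as luciferase luminescence (Steady-Glo, 30 min RT) in AREc32_Fluc cells after 24 hr compound exposure at 37 deg C, 5% CO2; cells seeded overnight at 1000/well in OPTI-MEM, 5% FBS.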
miR-21 reporter: raises the signal of a miR-21 reporter | HeLa miR-21 FLuc reporter, luciferase, 48 h | Potency, µM (highest dose often 38.3 µM), for inactives: at the highest dose reporter change, positive = more light | 340,000 tested, under 10 active | AID 2288; active = well fitted rising curve with a large enough effect; inconclusive = small, poorly fitted or top-dose-only effect; inactive = no such curve, though single readings can be large or run the other way;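 also: % of control where 0% means no effect; miR-21 action dims this reporter so a rising signal means less miR-21 action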
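HeLa cells endogenously expressing miR-21, stably carrying CMV-driven firefly luciferase with a downstream miR-21 binding site, 2000 cells/well. Titrations up to approximately 40 uM, 48 hours; luciferase luminescence read.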
Nrf2 inh: Nrf2 pathway inhibition; A549 ARE-Fluc reporter, luciferase luminescence, 18-24 h; Potency, µM (highest dose often 46 µM), without a hit: at the top dose activity change, negative = inhibition, usual class: inhibitors; 360,000 tested, 2.1% active; further: potency means the concentration at half of the fitted maximal effect; on the % scale 0 is the no-effect control and ±100 the full control effect; nearly all actives have a fitted effect of over 60% in size
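Two sequential reads on A549 ARE_Fluc cells exposed to compound for 18-24 h: a CellTiter-Fluor fluorescence read for viability, then a luciferase luminescence read for Nrf2/ARE activity.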
ClpP mod: qHTS Assay for Activators of ClpP. ATP-dependent Clp protease proteolytic subunit (Bacillus subtilis (strain 168)), P80244. purified B. subtilis ClpP, FRET peptide cleavage, 20 min. Potency, µM (highest dose often 57.5 µM), for inactives: at the top dose activity change, negative = active. 340,000 tested, 1.9% active; active means well fitted falling curve with a large enough effect; inconclusive means small, poorly fitted or top-dose-only effect; inactive means no such curve, though single readings can be large or run the other way; further: potency means the concentration at half of the fitted maximal effect; the source files actives as falling curves though it sought activators and does not explain the sign; nearly all actives have a fitted effect of over 65% in size
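Purified B. subtilis ClpP, 10 microg/mL final in Tris/HCl pH8 with KCl, BSA, glycerol and Tween-20, cleaved an Abz/nitrotyrosine-quenched decapeptide. Fluorescence (ex 320, em 430) was read at 0 and 20 min at room temperature. Delta was normalized to 5.8 microM ADEP and DMSO/no-enzyme controls.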
* hit, by the source's call; ? = inconclusive; / = no result given; ! = repeats disagree; [ ] = remark or other dose. Unless noted, the call rests on the fitted dose curve; in most records, active means well fitted curve in the direction sought with a large enough effect; inconclusive means small, poorly fitted or top-dose-only effect, or another doubt; inactive means no such curve, though single readings can be large; an effect the other way counts as inactive or inconclusive.

By UniProt entry, the sequences of proteins in these tests, tags left out.
ATP-dependent Clp protease proteolytic subunit (Bacillus subtilis (strain 168)), P80244, UniProt P80244, whole entry, looked up: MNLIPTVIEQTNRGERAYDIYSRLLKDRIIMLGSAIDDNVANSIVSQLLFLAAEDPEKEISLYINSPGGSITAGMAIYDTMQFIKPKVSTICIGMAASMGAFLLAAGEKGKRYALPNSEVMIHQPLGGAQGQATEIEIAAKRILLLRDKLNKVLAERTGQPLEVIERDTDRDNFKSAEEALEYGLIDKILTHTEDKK

[1] O=C(Nc1nc(-c2ccccc2)cs1)c1ccc2c(=O)n3c(nc2c1)CCCCC3
[2] O=C(Nc1cccc(S(=O)(=O)N2CCOCC2)c1)c1ccc2c(=O)n3c(nc2c1)CCCCC3
[3] COc1ccc(/C=C/C(=O)c2c(O)c(OC)c3occc3c2OC)cc1OC
[4] CCCCCCCCCCCCCCCCCCN(CCCCCCCCCCCCCCCCCC)c1ccccc1
[5] O=C1CCc2cc(Cl)c(S(=O)(=O)Nc3ccc(Cl)c(Cl)c3)cc2N1
[6] Cc1ccc(CNC(=O)CSc2nc3ccsc3c(=O)n2-c2ccc(C(=O)O)cc2)cc1
[7] O=C(Nc1cccc(S(=O)(=O)N2CCCC2)c1)c1ccc2c(=O)n3c(nc2c1)CCCCC3
[8] CC(=O)c1cccc(NC(=O)c2ccc3c(=O)n4c(nc3c2)CCCCC4)c1
Compound,1,2,3,4,5,6,7,8
Nrf2 ARE act,1%,0%,/,/,/,-1%,0%,3%
ClpP mod,-9%,-25%,-1%,0%,/,-1%,1%,1%
A549 viability,?,?,/,/,13%,0%,-17%,1%
Nrf2 inh,5.8µM*,21µM*,/,/,0%,/,12µM*,4%
IL-2 act,0,-1,/,/,/,/,-6,1
miR-21 reporter,13%,29%,/,/,/,-4%,?,9%

[9] Cc1nn(Cc2c(Cl)cccc2Cl)c(C)c1NC(=O)c1cn(-c2ccccc2)nc1-c1ccccc1
[10] Cc1ccc(NC(=O)c2cn(-c3ccccc3)nc2-c2ccccc2)cc1
[11] C=CCn1c(SCC(=O)N2CCc3ccccc3C2)nc2sc(CC)cc2c1=O
[12] C=CCn1c(SCC(=O)N2CCOCC2)nc2sc(CC)cc2c1=O
[13] COc1cc(OC)cc(-c2nc3nc(C)c(CCC(=O)Nc4ccc(C)c(C)c4)c(C)n3n2)c1
[14] CCOc1ccc(C(=O)c2oc3ccccc3c2NC(=O)c2cc(=O)c3ccc(C)cc3o2)cc1
[15] Cc1ccc(S(=O)(=O)c2n[nH]n3c2nc(=O)c2ccccc23)cc1
[16] CSc1ncc(C(=O)Nc2ccccc2C(=O)c2ccccc2)c(C)n1
Compound,9,10,11,12,13,14,15,16
Nrf2 ARE act,-2%,4%,0%,0%,0%,-1%,-1%,8%
ClpP mod,2%,?,20µM*,-3%,0%,-1%,16µM*,-1%
A549 viability,13µM*,10%,0%,-20%,1%,1%,-16%,10%
Nrf2 inh,12µM*,19%,-35%,?,?,34%,-8%,7%
IL-2 act,-1,/,-5,-5,/,/,2,/
miR-21 reporter,-3%,-1%,21%,/,-4%,-2%,-3%,-6%

Four structures out of the list, sorted by SMILES length, smallest number first:
[10] Cc1ccc(NC(=O)c2cn(-c3ccccc3)nc2-c2ccccc2)cc1
[11] C=CCn1c(SCC(=O)N2CCc3ccccc3C2)nc2sc(CC)cc2c1=O
[14] CCOc1ccc(C(=O)c2oc3ccccc3c2NC(=O)c2cc(=O)c3ccc(C)cc3o2)cc1
[13] COc1cc(OC)cc(-c2nc3nc(C)c(CCC(=O)Nc4ccc(C)c(C)c4)c(C)n3n2)c1
Compound,10,11,14,13
Nrf2 ARE act,4%,0%,-1%,0%
ClpP mod,?,20µM*,-1%,0%
A549 viability,10%,0%,1%,1%
Nrf2 inh,19%,-35%,34%,?
IL-2 act,/,-5,/,/
miR-21 reporter,-1%,21%,-2%,-4%

(further entries)
[17] NC(=O)CSc1nnc(-c2cc(-c3cccs3)nc3ccccc23)o1
[18] CCCN(CC1CC1)C(=O)CSc1nnc(-c2cc(-c3cccs3)nc3ccccc23)o1
[19] CCC(C)NC(=O)CSc1nnc(-c2cc(-c3cccs3)nc3ccccc23)o1 (centres undefined)
[20] O=C(CSc1nnc(-c2cc(-c3cccs3)nc3ccccc23)o1)NC1CCCCC1
[21] Cc1ccc2oc(-c3ccc(C)c(NC(=O)/C=C/c4ccc(Cl)cc4)c3)nc2c1
[22] CCc1cccc(NC(=O)CN2Cc3ccccc3C2=O)c1
[23] COc1ccccc1C(=O)Nc1c(C(=O)c2ccccc2)oc2ccccc12
[24] CCOC(=O)c1oc2ccccc2c1NC(=O)c1ccccc1OC
Compound,17,18,19,20,21,22,23,24
Nrf2 ARE act,4%,0%,-1%,0%,11%,0%,-1%,-1%
ClpP mod,25µM*,25µM*,25µM*,?,-13%,1%,-1%,35µM*
A549 viability,-15%,-2%,-17%,-1%,1%,-8%,-1%,-8%
Nrf2 inh,?,?,?,?,?,0%,-18%,?
IL-2 act,0,0,1,1,/,/,/,-3
miR-21 reporter,-1%,0%,6%,-1%,-62%,-4%,-19%,-8%

[25] C=CCn1c(SCC(=O)NC2CCCC2)nnc1-c1ccncc1
[26] Cc1sc2ccccc2[n+]1CCC[n+]1c(C)sc2ccccc21
[27] CCCc1cc(=O)oc2c(C)c3c(cc12)CN(CCc1ccc(Cl)cc1)CO3
[28] CCc1nnc(NC(=O)c2ccc(NS(=O)(=O)c3ccccc3)cc2)s1
[29] O=C(Nc1ccccc1O)c1ccc(NS(=O)(=O)c2cccc3cccnc23)cc1
[30] CCc1nnc(NS(=O)(=O)c2ccc(NC(=O)c3ccccc3)cc2)s1
[31] O=C(Nc1ncccc1O)c1ccc(S(=O)(=O)Nc2ccccc2)cc1
[32] COc1cc(NC(=O)c2cc3c(=O)n(Cc4ccco4)ccc3nc2C)cc(OC)c1OC
Compound,25,26,27,28,29,30,31,32
Nrf2 ARE act,-1%,/,5%,0%,11µM*,0%,11µM*,9%
ClpP mod,25µM*,-3%,4%,28µM*!,0%,0%,/,-3%
A549 viability,-4%,/,-1%,?,10%,0%,0%,6%
Nrf2 inh,9%,/,6%,-23%,-10%,7%,-21%,-22%
IL-2 act,4,/,/,1,-1,2,0,/
miR-21 reporter,-2%,/,-6%,0%,-24%,-8%,/,-2%

[33] Cc1ccc(CNC(=O)CSc2ncc(S(=O)(=O)c3ccc(C)c(Cl)c3)c(=O)[nH]2)cc1
[34] CC(C)(C)C1CCc2nc(NC(=O)COc3ccc(F)cc3)sc2C1 (centres undefined)
[35] CCCCN(CCCC)S(=O)(=O)c1ccc(NS(=O)(=O)c2ccc(NC(C)=O)cc2)cc1
[36] CCCCOc1ccc(S(=O)(=O)Nc2ccc(NC(C)=O)cc2)cc1
[37] CCOc1ccc(S(=O)(=O)c2c(C(=O)c3ccc(C)cc3)cnc3cc4c(cc23)OCCO4)cc1
[38] Cc1ccc(C(=O)c2cnc3cc4c(cc3c2S(=O)(=O)c2ccccc2)OCCO4)cc1
[39] CCc1ccc(NC(=O)CSc2ccnc(=O)[nH]2)cc1
[40] O=c1nc(-c2ccccc2)cc(-c2ccccc2)[nH]1
Compound,33,34,35,36,37,38,39,40
Nrf2 ARE act,-1%,0%,0%,0%,2%,13µM*,3%,8%
ClpP mod,0%,-2%,0%,0%,?,0%,1%,28µM*
A549 viability,5%,8%,-10%[1.84 µM],-9%,12%,3%,-10%,-1%
Nrf2 inh,/,28%,16µM*,?,-12%,?,/,-4%
IL-2 act,/,/,-1,0,0,-1,/,-4
miR-21 reporter,-1%,1%,-8%,4%,-18%,-47%,-18%,-16%

[41] COc1ccccc1-c1cc(-c2ccccc2)nc(=O)[nH]1
[42] N#Cc1ccccc1Cn1c(SCC(=O)NCc2ccccc2)nc2ccccc21
[43] c1ccc(CSc2ncnc3sccc23)cc1
[44] Cc1ccc(CSc2ncnc3c2cnn3-c2ccccc2)cc1
[45] Cc1ccc(-n2ncc3c(SCc4ccccc4)ncnc32)cc1
Compound,41,42,43,44,45
Nrf2 ARE act,3%,0%,11µM*,3%[9.22 µM],0%
ClpP mod,4%,1%,0%,25µM*,22µM*
A549 viability,4%,1%,0%,7%,-1%
Nrf2 inh,?,/,9%,?,6%
IL-2 act,-5,/,0,0,0
miR-21 reporter,-8%,-7%,-16%,-7%,-63%
